From ChEMBL document CHEMBL5537119 (Eur J Med Chem, 2024)

What was measured:
Homo sapiens [1] = species: Homo sapiens; assay: Selectivity index, ratio of IC50 for inhibition of human recombinant HDAC2 to IC50 for inhibition of human recombinant HDAC4
Homo sapiens [2] = species: Homo sapiens; assay: Selectivity index, ratio of IC50 for inhibition of human recombinant HDAC6 to IC50 for inhibition of human recombinant HDAC4
Homo sapiens [3] = species: Homo sapiens; assay: Selectivity index, ratio of IC50 for inhibition of human recombinant HDAC8 to IC50 for inhibition of human recombinant HDAC4

Row | Ratio IC50 (Homo sapiens [1]) | Ratio IC50 (Homo sapiens [2]) | Ratio IC50 (Homo sapiens [3]) | SMILES
1 | 18 | 18 | 18 | O=C(Nc1cnc2ccccc2c1)c1ccc(-c2noc(C(F)(F)F)n2)cc1
2 | > 158 | 31 | 114 | CN(C(=O)c1ccc(-c2noc(C(F)(F)F)n2)cc1)c1ccccc1
3 | > 139 | > 139 | > 139 | O=C(NCCc1c[nH]c2ccccc12)c1ccc(-c2noc(C(F)(F)F)n2)cc1

The next lines start with the compound.

Row | SMILES | Ratio IC50 (Homo sapiens [1]) | Ratio IC50 (Homo sapiens [2]) | Ratio IC50 (Homo sapiens [3])
4 | CCN(CC)CCCCNC(=O)c1ccc(-c2noc(C(F)(F)F)n2)cc1 | 183 | 40 | 48
5 | CN(C)c1ccc(CNC(=O)c2ccc(-c3noc(C(F)(F)F)n3)cc2)cc1 | > 108 | > 108 | > 108
6 | O=C(NOCc1coc(-c2ccccc2)n1)c1ccc(-c2noc(C(F)(F)F)n2)cc1 | > 847 | > 847 | > 847
7 | CCN(CC)CCN(C)C(=O)c1ccc(-c2noc(C(F)(F)F)n2)cc1 | 250 | 85 | 55
8 | CN1CCN(C(=O)c2ccc(-c3noc(C(F)(F)F)n3)cc2)CC1 | 68 | 47 | 14
